Target: PD-L1 protein (Homo sapiens, UniProt Q9NZQ7)
Experiment: SPR affinity analysis with PD-L1 protein (Biacore 8K, CM5 chip)
Assay type: binding
Conditions: PD-L1 coupled to CM5 chip, PBS buffer, read-out: dissociation constant (KD) with PD-L1
From the text: Biacore 8K high-throughput molecular interaction analysis system, CM5 chip, and phosphate buffered saline (PBS) buffer as the mobile phase of the instrument were used in the whole process of the surface plasmon resonance experiment. The PD-L1 was coupled to the activated CM5 chip using an amino coupling kit. […] The ME-2 polysaccharide solution with different concentrations was passed through the coupling channel and the blank channel at a certain velocity by using the running buffer. After 60 s of dissociation, the chip was regenerated with 10 mM glycine-HCl (pH2.0) and 3 M NaCl at a flow rate of […] for 30 s. Biacore Evaluation 3.1 software and GraphPad Prism 8.0 software were used to analyze the data and obtain the response curve.
The regeneration curve decreased obviously, and it had the characteristics of fast bonding and fast dissociation.

Chains of the proteins cited; added tags and fusions are not shown. Residues count along the entry.
UniProt Q9NZQ7, 19-290, species assumed: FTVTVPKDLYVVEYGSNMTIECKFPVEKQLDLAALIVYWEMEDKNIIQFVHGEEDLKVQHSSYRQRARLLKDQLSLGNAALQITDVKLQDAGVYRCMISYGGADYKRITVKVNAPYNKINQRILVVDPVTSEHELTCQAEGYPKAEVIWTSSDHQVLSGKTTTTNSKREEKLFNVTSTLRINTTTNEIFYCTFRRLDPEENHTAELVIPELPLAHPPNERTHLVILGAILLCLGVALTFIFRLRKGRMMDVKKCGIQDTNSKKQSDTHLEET

## PD-1: programmed cell death protein 1, natural binding partner of PD-L1, measured by SPR as comparison
  Kd: 533 nM
